Data from patent publication US20240376151A1, “STAPLED PEPTIDES AND METHODS THEREOF” (FOG PHARMACEUTICALS, INC., priority 2022, published 2024).

Amino acid sequences for entries named in this document (tags omitted). Residues count along the entry.
UniProt Q9NZQ7, 18-239: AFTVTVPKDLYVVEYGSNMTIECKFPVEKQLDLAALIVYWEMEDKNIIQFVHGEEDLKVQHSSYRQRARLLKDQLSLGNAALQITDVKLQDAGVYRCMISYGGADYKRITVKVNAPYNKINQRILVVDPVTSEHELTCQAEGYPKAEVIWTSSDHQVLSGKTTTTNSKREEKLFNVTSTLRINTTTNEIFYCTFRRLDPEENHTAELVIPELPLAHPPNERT

Target: PD-L1 (Homo sapiens, UniProt Q9NZQ7)
Settings: PD-L1 in the presence of competitor PD1_300

| phage screen counts, Competitor PD1_300 | Sequence |
| --- | --- |
| 496 | DPALWQCVFAARSCYEE |
| 0 | DPAAADCQWAAFLCRVY |
